For one test, the target named is mu opioid receptor (Cavia porcellus, UniProt A0ACM8Q262). The test is described as follows: mu opioid receptor binding, tritiated DAGO, brain homogenates.
The target of a further test is kappa opioid receptor (Cavia porcellus, UniProt P41144). The test is described as follows: kappa opioid receptor binding, tritiated etorphine, brain homogenates. To be noted: for mu/k (mu/kappa ratio of ki): ratio of mu ki to kappa ki.

Protein sequences, listed by entry. Tags and fused reporters are not part of them. Lines headed by an entry give the natural chain unless they say otherwise; changes in a name come on top. Residues count along the entry.
UniProt A0ACM8Q262, 1-400: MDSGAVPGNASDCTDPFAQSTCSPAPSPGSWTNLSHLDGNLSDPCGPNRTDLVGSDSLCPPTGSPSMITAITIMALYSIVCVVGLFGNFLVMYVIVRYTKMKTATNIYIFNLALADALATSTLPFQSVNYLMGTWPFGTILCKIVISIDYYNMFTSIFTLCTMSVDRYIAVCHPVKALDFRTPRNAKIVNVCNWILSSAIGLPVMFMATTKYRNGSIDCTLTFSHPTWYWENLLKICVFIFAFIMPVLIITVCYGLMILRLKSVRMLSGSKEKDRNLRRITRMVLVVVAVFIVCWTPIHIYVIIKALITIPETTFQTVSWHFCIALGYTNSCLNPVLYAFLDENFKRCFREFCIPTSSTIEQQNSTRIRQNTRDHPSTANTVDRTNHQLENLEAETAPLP
UniProt P41144: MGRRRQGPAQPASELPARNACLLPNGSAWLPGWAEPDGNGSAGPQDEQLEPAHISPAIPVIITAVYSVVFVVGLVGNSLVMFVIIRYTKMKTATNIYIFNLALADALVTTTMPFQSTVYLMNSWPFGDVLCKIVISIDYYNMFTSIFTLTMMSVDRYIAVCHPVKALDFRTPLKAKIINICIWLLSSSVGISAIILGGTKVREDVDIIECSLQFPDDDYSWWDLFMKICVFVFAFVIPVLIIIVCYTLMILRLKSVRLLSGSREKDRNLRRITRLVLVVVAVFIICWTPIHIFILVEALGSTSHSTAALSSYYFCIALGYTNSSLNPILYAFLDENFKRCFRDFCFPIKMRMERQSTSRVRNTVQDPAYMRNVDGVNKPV

Structures are written as SMILES.

As to `CN(C(=O)Cc1cccc2c1CCO2)[C@H]1CC[C@@]2(CCCO2)C[C@@H]1N1CCCC1` (single isomer, unassigned), the Ki (as a rule, a dissociation constant, usually derived from enzyme kinetics or from competition with a known ligand) on mu opioid receptor was 4930 nM. Besides, on kappa opioid receptor, the Ki is 9.7 nM and the mu/k (mu/kappa ratio of ki) is 508.

In turn, `CN(C(=O)Cc1cccc2c1COC2=O)[C@H]1CC[C@@]2(CCCO2)C[C@@H]1N1CCCC1` (single isomer, unassigned) gave a Ki on mu opioid receptor of 2870 nM. Besides, at kappa opioid receptor, the Ki came out at 5.3 nM and the mu/k (mu/kappa ratio of ki) is 541.
